A short description of the experiment: qHTS Assay for NPC1 Promoter Activators.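 Further: reporter is driven by a mutant NPC1 promoter; % of control where 0% means no effect; nearly all actives have a fitted effect of over 60% in size.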 The note with it: Huh7 NPC1 promoter luciferase reporter, 24 h.
[1] abbreviates: at 9.22 µM (top of the series) unless noted.

Molecules are shown by their SMILES. The list shows a part of the results, in another mix than the full data. Calls of active or inactive are those of the source. The call rests on the fitted dose curve; in most records, active means well fitted activation curve with a large enough effect; inconclusive means small, poorly fitted or top-dose-only effect; inactive means no such curve, though single readings can be large or run the other way.

Regarding `O=[N+]([O-])c1cc([N+](=O)[O-])c(-c2ccn[nH]2)s1`, under setting [1], the activation was inactive: -3.29%. On the same count and under the same terms, for `CCN(CC)C(=S)SC(NC=O)C(Cl)(Cl)Cl` (centres undefined) the value was inactive: -0.132%; for `CC(C)NC(=O)NP(=O)(Oc1ccccc1)Oc1ccccc1`, inactive: -0.246%. For `CC(C)c1ccc(OP(=O)(Nc2ccccn2)Oc2ccccc2F)cc1` (centres undefined), the activation under setting [1] was inactive: -1.08%. Still for that read-out and setting: for `ClCCSc1nnc(-c2cccnc2)o1` the value was inactive: 8.6%; for `Cc1ccc2nc3c(c(C)c2c1)CC(C(Cl)Cl)S3` (centres undefined), inactive: 13%; for `Cc1ccc(OP(=O)(Nc2ccc([N+](=O)[O-])cn2)Oc2ccc(C)cc2)cc1`, inactive: -6.66%. Still for that read-out and setting: next, `COc1cc(C(=O)NCC2(N3CCOCC3)CCCCC2)ccc1OCC(C)C`: inactive: -1.63%. Still for that read-out and setting: next, `C[As](=O)(O)c1cccc(C(=O)O)c1`: inactive: -2.41%; `O=[As](O)(c1ccc(O)cc1)c1ccccc1O`: inactive: -1.91%; `COc1ccc(N/C(=N/P(=O)(N2CCOCC2)N2CCOCC2)N2CCOCC2)cc1`: inactive: -0.437%. Regarding `COc1cc(I)ccc1[As](=O)(O)O`, the activation under setting [1] was inactive: -2.02%. Same read-out and setting: for `COc1ccc2nc(NP(=O)(c3ccccc3)c3ccccc3)sc2c1` the value was inactive: -3.12%; for `Cc1cc(=O)[nH]c(N[N+](=O)[O-])n1`, inactive: -1.34%; for `O=C(OC1CN2CCC1CC2)C12CC3CC(CC(C3)C1)C2` (centres undefined), inactive: -0.0971%. As to `Cc1c2c(nc3ccccc13)SC(C(Cl)Cl)C2` (centres undefined), the activation under setting [1] is inactive: -4.78%.

In the case of `CCC(C)N(CC(C)C)C(=S)SC(NC(C)=O)C(Cl)(Cl)Cl` (centres undefined), the activation under setting [1] is inactive: -0.275%.

Consider `O=C(OC1CN2CCC1CC2)c1cccc([N+](=O)[O-])c1` (centres undefined), for which, under setting [1], the activation was inactive: -4.68%. Same read-out and setting: for `O=C(Nc1ccncc1[N+](=O)[O-])c1ccc([N+](=O)[O-])cc1[N+](=O)[O-]` the value was inactive: 16.8%; for `O=C(COc1ccccc1)OC1CN2CCC1CC2` (centres undefined), inactive: -0.556%; for `COP1(=S)c2c(C)nn(CCC#N)c2N=C(c2ccc(F)cc2)N1C` (centres undefined), inactive: -1.44%.

As to `O=[N+]([O-])c1ccc(Nc2ccc(Oc3ccc([N+](=O)[O-])cc3[N+](=O)[O-])cc2)c([N+](=O)[O-])c1`, under setting [1], the activation was inactive: -5.12%.

For `O=P(Nc1ccccn1)(c1cccc2ccccc12)c1cccc2ccccc12`, the activation under setting [1] was inactive: -7.6%.

In the case of `Cc1cc(SC(NC=O)C(Cl)(Cl)Cl)ncn1` (centres undefined), the activation under setting [1] was inactive: 0.892%. `CCOC(=O)Nc1cccc([As](=O)(O)O)c1`: under setting [1], the activation was inactive: -4.04%. `Cc1cc(SC(NC(=O)c2ccccc2)C(Cl)(Cl)Cl)nc(C(C)C)n1` (centres undefined): under setting [1], the activation was inactive: -2.42%.

Take `CCCCOc1ccc(C(=O)NCC2(N3CCCCC3)CCCCC2)cc1OC`: the activation under setting [1] is inactive: 0.371%.

As to `CCOC(=O)Nc1ccc([As](=O)(O)O)c(O)c1`, the activation under setting [1] is inactive: -2.18%. Same read-out and setting: for `O=P1(Nc2ccc(Br)cn2)COc2ccccc2OC1` the value was inactive: 1.62%. On the same count and under the same terms, next, `NS(=O)(=O)c1cccc(NC(=O)COC(=O)C(O)(c2ccccc2)c2ccccc2)c1`: inactive: -2.78%; `Cc1ccc(OCC(=O)OC2CN3CCC2CC3)cc1` (centres undefined): inactive: -2.76%; `O=[As](O)(c1cccs1)c1cccs1`: inactive: 0.637%. Still for that read-out and setting: for `Nc1cccc([As](=O)(O)c2ccccc2)c1` the value was inactive: -2.02%; for `O=P1(Nc2ncccn2)COc2ccccc2OC1`, inactive: 16.3%. As to `O=C(/C=C/c1ccccc1)OC1CN2CCC1CC2` (centres undefined), the activation under setting [1] is inactive: -0.678%. Consider `CN(C)C1(CNC(=O)c2ccc(S(C)(=O)=O)cc2)CCCCC1`, for which the activation under setting [1] was inactive: -1.89%. The same measure, in the same setting: next, `CC1CCC(C(C)C)C(OP(=O)(Nc2ccccn2)c2ccccc2)C1` (centres undefined): inactive: -12.6%; `Cc1ccc(C(=O)OC2CN3CCC2CC3)cc1` (centres undefined): inactive: 2.22%; `Cc1nn(-c2ccccc2)c2c1P(=O)(N1CCOCC1)N(C)C(c1ccccc1)=N2` (centres undefined): inactive: 1.04%. With `O=[As](O)(c1ccccc1Br)c1ccccc1Br`, under setting [1], the activation is inactive: -4.19%. Same read-out and setting: for `CC(C)/C=N\N=C(\N)N[N+](=O)[O-]` the value was inactive: -15%; for `CN(C(=O)Cc1ccc(Cl)c(Cl)c1)[C@@H]1CCCC[C@H]1N1CCCC1`, inactive: -1.34%. For the molecule `COc1ccccc1CNC(=O)COC(=O)C(O)(c1ccccc1)c1ccccc1`, under setting [1], the activation is inactive: 1.28%. As to `CC(C)(C)C(=O)NC(Sc1ncccn1)C(Cl)(Cl)Cl` (centres undefined), the activation under setting [1] is inactive: -2.75%. Same read-out and setting: next, `Clc1n[nH]nc1-c1nn[nH][15n]1`: inactive: -2.84%; `CN(CCCl)Cc1cc(Cl)c(NC2=NCCN2)c(Cl)c1`: inactive: 2.66% [at 46.1 µM]; `CCOP(=O)(Nc1ccc(C)cn1)OCC`: inactive: 2.24%.

`CCOP(=O)(NC(=NC(C)c1ccccc1)NC(C)c1ccccc1)OCC` (centres undefined): the activation under setting [1] was inactive: 1.53%. Still for that read-out and setting: for `O=P1(Nc2ccccn2)COc2ccccc2OC1` the value was inactive: -2.62%; for `CCC1=CC2Cc3nc4ccc(Cl)cc4c(N)c3C(C1)C2` (centres undefined), inactive: -1.66%; for `CCOP(=O)(Nc1cccc2ccccc12)OCC`, inactive: -1.45%. Regarding `COc1cc(C2NCCC3(OCCO3)C2(C)C)cc(OC)c1OC` (centres undefined), the activation under setting [1] was inactive: -0.202%. The same measure, in the same setting: for `CCCOP(=S)(Nc1nc(N)cc(=O)[nH]1)OCCC` the value was inactive: 0.758%; for `Cc1ccc(NCCc2c([N+](=O)[O-])cc([N+](=O)[O-])cc2[N+](=O)[O-])cc1`, inactive: -1.48%; for `Nc1cccc2c([As](=O)(O)O)cccc12`, inactive: -0.881%. Consider `O=[As](O)(c1cccc(O)c1)c1cccc(O)c1`, for which, under setting [1], the activation was inactive: 3.27%.

Consider `CS(=O)(=O)c1ccc(Cl)c(NC(=O)COC(=O)C(O)(c2ccccc2)c2ccccc2)c1`, for which, under setting [1], the activation was inactive: 1.4%.

As to `COc1cc(C(=O)NCC2(N3CCOCC3)CCCCC2)cc(Cl)c1OC(C)C`, under setting [1], the activation is inactive: -3.94%. Still for that read-out and setting: for `O=[As](O)(O)c1cccnc1` the value was inactive: -0.436%. Still for that read-out and setting: for `CN(C(=O)Cc1ccc(Cl)c(Cl)c1)[C@@H]1CC[C@]2(CCCO2)C[C@H]1N1CCCC1` the value was inactive: -4.93% [at 46.1 µM]; for `O=C(OC1CN2CCC1CC2)c1ccc(Cl)cc1` (centres undefined), inactive: -4.76%; for `O=[N+]([O-])c1ccc2c(c1)nnn2O`, inactive: -0.51%. For `CN(C(=O)Cc1ccccc1)[C@@H]1CC[C@]2(CCCO2)C[C@H]1N1CCCC1`, the activation (at 9.22 µM (top of the series)) is inactive: -3.35% and the activation (at 46.1 µM (top of the series)) was inactive: -1.52%. On to `CCOP1(=S)c2c(C)nn(CCC#N)c2N=C(c2ccc(F)cc2)N1C` (centres undefined), for which the activation under setting [1] was inactive: 0.357%.

As for `N#CCCN(C(=O)COC(=O)C(O)(c1ccccc1)c1ccccc1)c1ccc(F)cc1`, the activation under setting [1] was inactive: -0.614%.

For the molecule `NC(=O)Nc1ccc([As](=O)(O)O)cc1`, the activation under setting [1] was inactive: -0.0193%. The same measure, in the same setting: next, `Nc1ccccc1[As](=O)(O)c1ccccc1`: inactive: -4.26%; `O=C(O)COc1ccc([As](=O)(O)O)cc1[N+](=O)[O-]`: inactive: -0.0709%; `CS(=O)(=O)c1cc([N+](=O)[O-])c2no[n+]([O-])c2c1`: inactive: -3.86%.

As for `O=P(Nc1nccs1)(c1ccccc1)c1nc2ccccc2s1` (centres undefined), the activation under setting [1] was inactive: 10.1%.

With `O=P(Nc1nccs1)(Oc1ccccc1)Oc1ccccc1`, the activation under setting [1] was inactive: 1.05%. With `CCOP1(=S)c2c(C)nn(CCC#N)c2N=C(c2ccccc2F)N1C` (centres undefined), under setting [1], the activation was inactive: -8.18%. Same read-out and setting: for `CN(C)C(=O)Oc1noc2ccccc12` the value was inactive: -5.3%. `O=c1c2cc([N+](=O)[O-])ccc2[nH]c2c([N+](=O)[O-])cc([N+](=O)[O-])cc12`: the activation under setting [1] was inactive: -42.2%. Still for that read-out and setting: for `Cc1ccccc1OP(=O)(Nc1ccccn1)Oc1ccccc1C` the value was inactive: -1.16%; for `CC(=O)NC(SC(=S)N(CC(C)C)CC(C)C)C(Cl)(Cl)Cl` (centres undefined), inactive: -5.88%. On the same count and under the same terms, for `Cc1ccc(OP(=O)(Nc2ccccn2)Oc2ccc(C)cc2)cc1` the value was inactive: -3.04%; for `COC(=O)c1cc2c(s1)N=C(c1ccccc1)N(C)P2(=O)N1CCOCC1` (centres undefined), inactive: 7.64%. Still for that read-out and setting: next, `CCC(=O)N1C2C3N(C(=O)CC)C1C1N(C(=O)CC)C(C(N1C(=O)CC)N3C(=O)CC)N2C(=O)CC`: inactive: -2.66%; `CN(C(=O)Cc1ccc(Cl)c(Cl)c1)[C@@H]1CCCC[C@@H]1N1CCCC1`: inactive: -7.72% [at 46.1 µM]. As for `O=C(OC1CN2CCC1CC2)c1ccccc1` (centres undefined), under setting [1], the activation is inactive: 0.319%.

Turning to `CCNC(=S)/N=C(\N)N[N+](=O)[O-]`, the activation under setting [1] is inactive: -8.67%. The same measure, in the same setting: for `O=C(NC1CCS(=O)(=O)C1)NP(=S)(Oc1ccccc1)Oc1ccccc1` (centres undefined) the value was inactive: -0.361%; for `Cc1ccc(NP(=O)(Oc2cccc(C)c2)Oc2cccc(C)c2)nc1`, inactive: -3.22%; for `CCOC(=O)NC(Sc1ccccc1)C(Cl)(Cl)Cl` (centres undefined), inactive: -8.13%. On the same count and under the same terms, for `c1ccc(-c2nn[nH]n2)c(-c2nn[nH]n2)c1` the value was inactive: -1.06%. Turning to `CC(=O)Nc1ccc(Oc2c([N+](=O)[O-])cc([N+](=O)[O-])cc2[N+](=O)[O-])cc1`, the activation under setting [1] is inactive: -0.394%. On the same count and under the same terms, for `CC(=O)Nc1ccc([As](=O)(O)O)c(O)c1` the value was inactive: -4.59%. The same measure, in the same setting: for `CC(=O)c1ccc(N2CC2c2ccncc2)cc1` (centres undefined) the value was inactive: -3.18%. Still for that read-out and setting: next, `C[C@@H]1C=CCP(=O)(Oc2ccccc2)O1` (some centres undefined): inactive: 1.27%. Consider `C[C@H]1OP(=O)(Oc2ccccc2)C[C@@H]2O[C@@H]21` (some centres undefined), for which, under setting [1], the activation was inactive: -4.56%. As for `Cc1ccccc1CN(C)C(=O)COC(=O)C(O)(c1ccccc1)c1ccccc1`, the activation under setting [1] is inactive: 4.46%. Same read-out and setting: next, `CC(C)(C)C(=O)NC(Sc1ccccc1)C(Cl)(Cl)Cl` (centres undefined): inactive: -2.04%; `CCOc1ccc(C2=NCC(CBr)S2)cc1` (centres undefined): inactive: 4.14%; `O=P1(Nc2nc3ccc(Cl)cc3s2)COc2ccccc2O1` (centres undefined): inactive: 3.93%. Regarding `c1nnnn1CCn1cnnn1`, the activation under setting [1] was inactive: 2.85%. On the same count and under the same terms, for `CC(C)C(=O)NC(Sc1ccccc1)C(Cl)(Cl)Cl` (centres undefined) the value was inactive: 1.57%. Same read-out and setting: next, `O=P(Nc1nccs1)(c1ccccc1)c1ccccc1`: inactive: 0.497%.

(Values after PubChem BioAssay AID485313 (National Center for Advancing Translational Sciences (NCATS), 2010).)
